For one molecule, IC50 results are on record in patent publication US20250282824A1, “Inhibitors of the Wnt Signaling Pathway and Uses Thereof” (Stichting VU, priority 2021, published 2025).

The experiment has as its system Wnt signaling pathway. The experiment is described as follows: TOPFLASH reporter gene assay in HEK293T cells. The settings on record: read-out: IC50, concentration-dependent TOPFLASH reporter gene assay, c=0.512-50 μM, 24 h, n=3. In general terms: Reporter assays use an easily measured gene product as a stand-in for the process of interest.

As for `CC(C)C[C@@H]1NC(=O)[C@H](CC(C)C)NC(=O)[C@H](CO)NC(=O)[C@H](CC(=O)O)NC(=O)[C@@H]2CCCN2C(=O)[C@H]2CCCN2C(=O)[C@H](C(C)C)NC(=O)[C@H](CC(=O)O)NC(=O)[C@H](CC(N)=O)NC(=O)[C@H](CCCNC(=N)N)NC(=O)[C@@H]2CSC/C=C/CSC[C@H](NC1=O)C(=O)N[C@@H](Cc1ccccc1)C(=O)NCCC(=O)NCCC(=O)N[C@@H](C(C)C)C(=O)N2` [A-b6, [βA-V-[C-R-N-D-V-p-P-D-S-L-L-C]-F-βA]/b6], the IC50 worked out at 8 µM.
